Values quoted from earlier work in patent publication US20240174727A1, “LONG-ACTING NATRIURETIC PEPTIDES AND USES THEREOF” (Eli Lilly and Company, priority 2022, published 2024).

Conditions: cited from earlier work

Urodilatin
in vivo half-life: about 6 min
